The values that follow are results of earlier work, collected in patent publication US20200224136A1, “INTESTINE-CHIP: DIFFERENTIAL GENE EXPRESSION MODEL” (priority 2019, published 2020).

For one data set, the target named is T1, human PXR (hPXR) (Homo sapiens, UniProt O75469).
T1 sequence (O75469 1-434): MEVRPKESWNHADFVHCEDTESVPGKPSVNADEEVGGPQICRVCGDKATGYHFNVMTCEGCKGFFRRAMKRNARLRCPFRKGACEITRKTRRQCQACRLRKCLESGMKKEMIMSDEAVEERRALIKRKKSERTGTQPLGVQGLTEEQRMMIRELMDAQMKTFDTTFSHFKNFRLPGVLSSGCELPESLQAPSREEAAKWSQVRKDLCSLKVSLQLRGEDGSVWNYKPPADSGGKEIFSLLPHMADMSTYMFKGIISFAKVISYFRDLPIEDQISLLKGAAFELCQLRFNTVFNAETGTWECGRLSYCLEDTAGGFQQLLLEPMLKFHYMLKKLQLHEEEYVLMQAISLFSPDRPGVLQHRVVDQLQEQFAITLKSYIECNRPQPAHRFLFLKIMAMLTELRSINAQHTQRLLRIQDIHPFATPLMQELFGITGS
Conditions: cited from earlier work.

The next data set deals with T2, mouse PXR (mPXR) (Mus musculus, UniProt O54915).
T2 sequence (O54915 1-431): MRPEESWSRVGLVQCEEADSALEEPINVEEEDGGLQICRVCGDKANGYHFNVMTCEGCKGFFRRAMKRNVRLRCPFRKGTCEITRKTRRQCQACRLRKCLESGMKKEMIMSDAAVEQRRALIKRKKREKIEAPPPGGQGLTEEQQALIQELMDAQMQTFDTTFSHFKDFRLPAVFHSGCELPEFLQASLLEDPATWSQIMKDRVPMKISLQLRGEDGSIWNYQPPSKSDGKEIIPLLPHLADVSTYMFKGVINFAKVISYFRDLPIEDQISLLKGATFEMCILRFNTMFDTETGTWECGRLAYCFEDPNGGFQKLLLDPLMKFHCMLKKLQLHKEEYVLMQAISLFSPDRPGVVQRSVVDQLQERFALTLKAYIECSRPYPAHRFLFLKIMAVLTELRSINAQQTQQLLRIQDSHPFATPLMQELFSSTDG
The note with it: cited from earlier work.

Regarding rifampicin, the “agonism at human PXR” value at human PXR (hPXR) is “potent agonists”. In addition, the “agonism at mouse PXR” value at mouse PXR (mPXR) is on record as “not for mouse PXR”.
